This test deals with patients with schizophrenia. The experiment in a line: CATIE trial drug response (>20% decrease in PANSS Total Score) by HPCAL1/SV2C genotype. The note with it: for OR vs. Low: vs low scoring genotype(s). The test is classed as in vivo, human. The protocol:
The Clinical Antipsychotic Trials of Intervention Effectiveness (CATIE), a large federally funded clinical trial designed to assess the efficacy of antipsychotics in a real world setting, is a valuable resource for determining the role of genes in drug response (Stroup et al., Schizophr. Bull. 29:15-31 (2003); Lieberman et al., N. Engl. J. […] As part of the CATIE trial SNP genotyping was performed for roughly half of the trial participants (Sullivan et al., Mol. Psychiatry 13:570-584 (2008)). When combined with clinical drug response data, the genotyping data make possible a reduction to practice for the current invention as it relates to pharmacogenomic applications. The design of the CATIE study has been described in detail by others (Stroup et al., Schizophr. Bull. 29:15-31 (2003); Lieberman et al., N. Engl. J. […] A total of 738 subjects consented to provide DNA for genetic study. Details regarding SNP genotyping and quality control have been recently published (Sullivan et al., Mol. Psychiatry 13:570-584 (2008)). Genotype and phenotype data for the CATIE trial were made available to qualified researchers through The NIMH Center for Collaborative Genetic Studies on Mental Disorders. For reduction to practice, we evaluated data for 417 patients with schizophrenia self reported as having exclusively European ancestry. This same patient population was described in a recent study by Sullivan and coworkers, which confirmed that there is no hidden stratification in the sample (Sullivan et al., Mol. Psychiatry 13:570-584 (2008)). […] Golden Helix, Bozeman, Mont.). To generate a P value, HelixTree calculates analysis of deviance (a likelihood ratio statistic) that compares the observed contingency table vs. an expected contingency table created with all the possible variations of the genetic model. […] The standard FDA registration trial definition of response of >20% decrease in Positive and Negative Syndrome Scale (PANSS Total Score) was used to assign subjects to a response category. […] Bull. 29:73-80 (2003)). […] The tables report odds ratios relative to the baseline values (sample not segmented by genotype) and relative to values for the low scoring, mutually exclusive genotype(s).

SMILES strings stand for the structures.

Turning to `OCCOCCN1CCN(C2=Nc3ccccc3Sc3ccccc32)CC1` [quetiapine], the “OR vs. Low” value reads like this: (SV2C rs4610441 genotype C/C (C)) 4.06; (SV2C rs10474464 genotype C/C (C)) 4.06.
For `Cc1nc2n(c(=O)c1CCN1CCC(c3noc4cc(F)ccc34)CC1)CCCC2` [risperidone], for the setting “SV2C rs4704297 genotype C/C, C/G (C)”, the “OR vs. Low” value stood at 3.49. In addition, the OR vs. baseline (SV2C rs4704297 genotype C/C, C/G (C), vs sample not segmented by genotype) worked out at 1.39.

The record behind these values is patent US8460868B2, “Genetic markers for schizophrenia and bipolar disorder” (priority 2007, dated 2013).
